The record followed here is publication PMC10090947.

Amino acid sequences for entries named in this document (tags omitted). A change or cut given only in a name is not applied to a line headed by its entry.
UniProt Q4VCS5: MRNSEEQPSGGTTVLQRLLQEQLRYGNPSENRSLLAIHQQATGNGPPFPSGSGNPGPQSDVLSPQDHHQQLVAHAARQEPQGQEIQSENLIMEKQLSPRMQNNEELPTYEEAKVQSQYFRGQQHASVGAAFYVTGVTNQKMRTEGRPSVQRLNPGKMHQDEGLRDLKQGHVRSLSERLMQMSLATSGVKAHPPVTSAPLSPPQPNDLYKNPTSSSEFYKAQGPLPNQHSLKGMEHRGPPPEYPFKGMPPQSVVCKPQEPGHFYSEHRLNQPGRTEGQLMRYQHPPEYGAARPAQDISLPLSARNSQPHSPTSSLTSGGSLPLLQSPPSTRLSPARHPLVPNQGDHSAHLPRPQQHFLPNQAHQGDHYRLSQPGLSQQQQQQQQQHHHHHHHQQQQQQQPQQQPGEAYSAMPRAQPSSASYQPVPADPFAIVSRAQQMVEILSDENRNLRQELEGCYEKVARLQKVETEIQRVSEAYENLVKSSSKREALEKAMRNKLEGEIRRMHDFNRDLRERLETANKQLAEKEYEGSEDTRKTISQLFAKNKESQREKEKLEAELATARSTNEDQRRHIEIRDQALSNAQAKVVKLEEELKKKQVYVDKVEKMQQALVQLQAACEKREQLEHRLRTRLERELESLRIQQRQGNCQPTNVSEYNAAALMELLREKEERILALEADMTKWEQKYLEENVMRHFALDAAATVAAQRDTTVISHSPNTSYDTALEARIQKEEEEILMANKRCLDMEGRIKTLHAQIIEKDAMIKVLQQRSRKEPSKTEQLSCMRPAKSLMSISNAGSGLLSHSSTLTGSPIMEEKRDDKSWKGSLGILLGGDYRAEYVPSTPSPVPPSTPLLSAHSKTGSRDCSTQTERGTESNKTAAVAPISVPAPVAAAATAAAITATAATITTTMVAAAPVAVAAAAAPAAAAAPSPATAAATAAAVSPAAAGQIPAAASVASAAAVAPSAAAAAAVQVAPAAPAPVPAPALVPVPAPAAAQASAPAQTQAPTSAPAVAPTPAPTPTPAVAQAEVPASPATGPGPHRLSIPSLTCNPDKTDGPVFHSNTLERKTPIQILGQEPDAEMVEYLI
UniProt Q9Y2J4: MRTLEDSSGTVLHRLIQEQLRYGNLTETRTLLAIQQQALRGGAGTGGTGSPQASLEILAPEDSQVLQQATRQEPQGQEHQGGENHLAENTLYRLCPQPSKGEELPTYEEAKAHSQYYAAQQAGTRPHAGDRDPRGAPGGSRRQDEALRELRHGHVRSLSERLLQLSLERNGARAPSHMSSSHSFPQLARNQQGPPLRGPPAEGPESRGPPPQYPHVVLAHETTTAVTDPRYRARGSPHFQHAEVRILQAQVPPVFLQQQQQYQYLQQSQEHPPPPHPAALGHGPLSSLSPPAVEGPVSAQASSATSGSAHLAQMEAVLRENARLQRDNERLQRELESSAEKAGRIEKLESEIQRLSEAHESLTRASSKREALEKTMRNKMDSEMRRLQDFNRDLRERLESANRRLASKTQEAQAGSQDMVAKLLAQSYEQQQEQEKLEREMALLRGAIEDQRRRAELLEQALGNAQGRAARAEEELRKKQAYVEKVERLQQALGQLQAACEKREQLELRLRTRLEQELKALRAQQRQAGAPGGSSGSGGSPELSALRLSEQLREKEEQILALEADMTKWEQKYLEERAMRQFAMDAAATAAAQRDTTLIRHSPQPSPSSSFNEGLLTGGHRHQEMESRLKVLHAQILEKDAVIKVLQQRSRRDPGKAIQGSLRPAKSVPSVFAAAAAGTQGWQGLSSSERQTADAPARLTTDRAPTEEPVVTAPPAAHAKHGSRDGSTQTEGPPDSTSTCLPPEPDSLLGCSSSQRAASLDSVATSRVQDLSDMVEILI

Test [1] concerns the target AMOT (UniProt Q4VCS5). The test is described as follows: AP-MS (MS1 intensity). The settings on record: parent: est. 33; read off a plot.
Test [2] addresses AMOTL2 (UniProt Q9Y2J4). The test is described as follows: AP-MS (MS1 intensity). The settings on record: parent: est. 34; read off a plot.

For Strep‐HA YAP1 (wild type) S367A, the response (log2(Intensity)) in test [1] and in test [2] was 33 throughout.
